Laboratory results: publication PMC12021451 (Planta Medica, 2025)

Experiment: blood-to-plasma concentration ratio
Format: in vitro ADME, human
Details: range of 4 to 1000 ng/mL

Substance: Retrorsine
- Effect of the compound concentration on the Rb value: no concentration dependency was observed
